## AlphaSeq binding of Ab-91 heavy chain variants to a spike HR2 peptide

The measurements come from Engelhart et al. 2022 (doi:10.1038/s41597-022-01779-4) through the FLAb antibody collection.

The target is the same throughout: PDVDLGDISGINAS, from the HR2 region of SARS-CoV-2 spike.

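Variants in AAYL51 differ from the parent at up to three CDR positions; double and triple changes were sampled at random. The scFvs were displayed on barcoded MATa yeast, the peptide on MATalpha yeast. Mating (16 h, 30 °C) was followed by selection of diploids and sequencing of their barcodes. Each replicate has its own calibration line, from reference interactions of the BCL2 family. Each pool was mated in three replicate cultures.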

The variants keep the light chain, the linker and the frameworks of Ab-91 (scFv order VL, a (GGGGS)3 linker, VH).
VL: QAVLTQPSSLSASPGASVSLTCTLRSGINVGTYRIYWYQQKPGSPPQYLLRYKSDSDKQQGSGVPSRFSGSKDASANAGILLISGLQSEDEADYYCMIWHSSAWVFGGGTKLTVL
VH: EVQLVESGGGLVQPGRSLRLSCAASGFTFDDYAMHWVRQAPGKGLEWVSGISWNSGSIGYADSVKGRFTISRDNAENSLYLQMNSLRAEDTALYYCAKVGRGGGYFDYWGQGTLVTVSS

Changes read parent residue, position, new residue, counted from the first residue of the VH shown.
Every variant below is changed at D30 of the VH (sequential numbering).
Each Kd is an estimate from the mating assay, the geometric mean of the replicates in which the pair was seen; lower is stronger.
An entry "nd" has no value in the source: the pair was not observed among the diploids in any replicate. This suggests poor binding but is not conclusive.

F29N+D30A+V64N: nd (0 of 3 replicates; controls 0 of 9).
D30C+G56K+G100Y: nd (0 of 3 replicates; controls 0 of 9).
G26S+D30C+F106S: 2.9 µM (1 of 3 replicates; controls 0 of 9).
D30A+D31A+R101M: 47 µM (1 of 3 replicates; controls 1 of 9).
D30F+S55L+K65L: 17 µM (1 of 3 replicates; controls 2 of 9).
D30K+N54V+D107I: 480 nM (3 of 3 replicates; controls 3 of 9).
D30E+V64L+V99C: nd (0 of 3 replicates; controls 1 of 9).
D30R+G59K+K65N: 24 µM (3 of 3 replicates; controls 4 of 9).
D30G+S52N+G104A: 3.1 µM (1 of 3 replicates; controls 2 of 9).
D30P+I51T+S63A: 26 µM (3 of 3 replicates; controls 3 of 9).
D30R+M34K+D62V: 8.1 µM (1 of 3 replicates; controls 0 of 9).
D30P+R101K+Y108I: 8.1 nM (3 of 3 replicates; controls 3 of 9).
D30C+G102T: 52 µM (2 of 3 replicates; controls 4 of 9).
D30Q+W53G+G100A: 310 nM (3 of 3 replicates; controls 0 of 9).
D30Y+Y32P+S55T: nd (0 of 3 replicates; controls 3 of 9).
D30R+S57M+Y108R: 210 nM (3 of 3 replicates; controls 1 of 9).
D30M+V99R+G104C: 120 µM (2 of 3 replicates; controls 5 of 9).
G26K+D30H+S55D: nd (0 of 3 replicates; controls 0 of 9).
T28A+D30I+G102S: 68 µM (2 of 3 replicates; controls 5 of 9).
D30N+Y60N+K65S: nd (0 of 3 replicates; controls 0 of 9).
D30E+A33V+Y108D: 44 µM (2 of 3 replicates; controls 1 of 9).
D30A+D62P+R101N: 120 nM (3 of 3 replicates; controls 3 of 9).
D30H+V64T+K65G: nd (0 of 3 replicates; controls 0 of 9).
D30H+D31E+S52C: nd (0 of 3 replicates; controls 2 of 9).
D30K+Y32R+S57A: nd (0 of 3 replicates; controls 2 of 9).
D30T+Y60L+V99N: nd (0 of 3 replicates; controls 3 of 9).
D30K+G50E+V64A: nd (0 of 3 replicates; controls 1 of 9).
D30K+G104P+Y105E: nd (0 of 3 replicates; controls 0 of 9).
D30A+I51W+D62I: nd (0 of 3 replicates; controls 2 of 9).
D30V+I58Q+V64N: nd (0 of 3 replicates; controls 1 of 9).
D30G+A61H+G102D: 500 nM (3 of 3 replicates; controls 0 of 9).
D30R+M34E+G50L: nd (0 of 3 replicates; controls 1 of 9).
D30W+M34W+H35D: 210 µM (1 of 3 replicates; controls 2 of 9).
D30I+V99E+Y105I: 100 µM (2 of 3 replicates; controls 4 of 9).
F29V+D30N+S55D: 8.1 µM (1 of 3 replicates; controls 0 of 9).
D30M+S55D+G103M: nd (0 of 3 replicates; controls 0 of 9).
D30W+S52I+V99H: 55 µM (2 of 3 replicates; controls 2 of 9).
D30A+G56R+G103A: 75 nM (3 of 3 replicates; controls 8 of 9).
D30C+I58P+K65H: 24 µM (3 of 3 replicates; controls 6 of 9).
D30K+V99W+G103K: 30 µM (1 of 3 replicates; controls 1 of 9).
D30F+S55E+G100I: 1.8 µM (2 of 3 replicates; controls 1 of 9).
D30S+G100E+Y105E: 2.7 µM (3 of 3 replicates; controls 4 of 9).
D30P+K65S+G100S: nd (0 of 3 replicates; controls 0 of 9).
D30P+A33F+R101M: 5.3 µM (1 of 3 replicates; controls 0 of 9).
D30N+Y60I+D107I: 110 µM (3 of 3 replicates; controls 6 of 9).
D30A+A33Y+S55Y: nd (0 of 3 replicates; controls 2 of 9).
D30R+M34C+G102Q: nd (0 of 3 replicates; controls 0 of 9).

Repeated from above, the 5 best binders with a signal in all replicates:

changes	Kd	replicates with signal	signal with controls
D30P+R101K+Y108I	8.1 nM	3 of 3	3 of 9
D30A+G56R+G103A	75 nM	3 of 3	8 of 9
D30A+D62P+R101N	120 nM	3 of 3	3 of 9
D30R+S57M+Y108R	210 nM	3 of 3	1 of 9
D30Q+W53G+G100A	310 nM	3 of 3	0 of 9

Background: pairings of library AAYL51 with three empty control strains gave a value in 21% of cases (median 34 µM, 5th percentile 1.8 µM). Values in that range, when seen in few replicates, are hard to tell from nonspecific mating. Also given: how often the same scFv was detected with the empty control strains.
For reference, the parent read 72 nM as the reference entry and 7.5 nM as a member of this library.